Where “and” joins values, the source holds several entries; their conditions need not be identical. Equal entries are not always repeated.
Key:
[1] = target: T1, human 5-HT2B receptor (Homo sapiens, UniProt P41595); test: 5-HT activation potency (IP1 accumulation), 5-HT2B; type: cell-based; conditions: h5-HT2B Activation potency EC50 ± SD, NIH/3T3 cells
T1 construct: expressed in transfected cells; host or cells: NIH/3T3
Description: . […] NIH/3T3 cells stably expressing the human 5-HT1A, 5-HT2A, and 5-HT2B receptors were seeded at a density of 3,000 cells (5-HT1A and 5-HT2A) or 4,000 cells (5-HT2B) in 384-well plates using Opti-MEM medium from Gibco (ThermoFisher, Life Technologies, Zug, Switzerland). Subsequently, the test compounds were introduced, and the plates were incubated for 90 min at 37°C, followed by a 60 min incubation with Anti-IP1-Cryptate and IP1-d2 at room temperature. The formation of stimulated IP1 was quantified by homogeneous time-resolved fluorescence (HTRF) measurements using a BioTek Synergy H1 microplate reader (Agilent Technologies, Basel, Switzerland). The obtained raw data for receptor activation were subjected to normalization, wherein the baseline signal was set at 0%, and the maximum signal stimulated by 5-HT at the specific receptor was established as 100%.

The chains behind the UniProt entries cited, without tags or fusion partners.
UniProt P41595, whole entry: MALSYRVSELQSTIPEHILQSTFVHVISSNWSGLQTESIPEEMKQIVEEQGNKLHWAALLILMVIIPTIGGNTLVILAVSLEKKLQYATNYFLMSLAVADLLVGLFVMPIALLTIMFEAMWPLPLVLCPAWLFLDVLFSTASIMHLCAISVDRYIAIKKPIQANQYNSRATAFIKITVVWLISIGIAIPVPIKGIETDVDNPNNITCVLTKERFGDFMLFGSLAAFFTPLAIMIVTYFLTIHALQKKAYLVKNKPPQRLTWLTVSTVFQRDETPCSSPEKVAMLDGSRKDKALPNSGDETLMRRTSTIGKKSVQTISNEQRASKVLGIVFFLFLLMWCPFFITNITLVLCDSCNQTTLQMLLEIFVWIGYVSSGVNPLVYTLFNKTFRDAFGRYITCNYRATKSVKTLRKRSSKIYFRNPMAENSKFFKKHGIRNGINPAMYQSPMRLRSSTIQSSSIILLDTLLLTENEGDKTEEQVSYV
UniProt P28223, whole entry: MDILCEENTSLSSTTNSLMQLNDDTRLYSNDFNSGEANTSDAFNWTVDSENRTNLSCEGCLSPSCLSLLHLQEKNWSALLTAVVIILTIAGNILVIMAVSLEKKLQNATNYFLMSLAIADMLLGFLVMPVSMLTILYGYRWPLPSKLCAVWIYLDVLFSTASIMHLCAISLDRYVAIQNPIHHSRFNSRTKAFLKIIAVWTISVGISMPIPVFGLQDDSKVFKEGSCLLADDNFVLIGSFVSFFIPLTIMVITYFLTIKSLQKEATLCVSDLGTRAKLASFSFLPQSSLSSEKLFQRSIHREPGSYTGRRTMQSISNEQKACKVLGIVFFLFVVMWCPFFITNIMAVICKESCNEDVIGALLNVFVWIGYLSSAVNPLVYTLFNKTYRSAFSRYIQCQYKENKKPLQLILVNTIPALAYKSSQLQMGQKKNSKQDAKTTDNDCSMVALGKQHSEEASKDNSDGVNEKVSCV
UniProt P10635, whole entry: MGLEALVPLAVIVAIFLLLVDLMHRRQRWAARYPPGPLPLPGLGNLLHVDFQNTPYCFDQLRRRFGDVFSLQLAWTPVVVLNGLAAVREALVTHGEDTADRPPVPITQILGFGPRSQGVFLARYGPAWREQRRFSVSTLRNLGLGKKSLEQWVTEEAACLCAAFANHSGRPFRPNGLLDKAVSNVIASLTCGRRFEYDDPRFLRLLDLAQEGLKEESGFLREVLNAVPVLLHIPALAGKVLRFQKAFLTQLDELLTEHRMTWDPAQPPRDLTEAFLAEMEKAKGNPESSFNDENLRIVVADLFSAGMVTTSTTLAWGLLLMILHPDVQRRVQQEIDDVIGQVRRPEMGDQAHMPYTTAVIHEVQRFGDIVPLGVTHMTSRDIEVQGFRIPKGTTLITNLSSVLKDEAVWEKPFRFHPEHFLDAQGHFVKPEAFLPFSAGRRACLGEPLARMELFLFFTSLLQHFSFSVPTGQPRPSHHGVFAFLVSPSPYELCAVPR

[2] = target: human 5-HT2A receptor (Homo sapiens, UniProt P28223); conditions: Gq-dependent calcium flux, nearly full agonist; ref Sherwood et al., 2020; cited from earlier work
[3] = target: T2, recombinant CYP2D6 (Homo sapiens, UniProt P10635); test: Incubation with recombinant CYP2D6 enzymes; type: in vitro ADME; conditions: 1,000 nM psilocin
T2 construct: purchased Corning Life Sciences B.V
Description: Corning UltraPool human liver microsomes (HLM) 150 (20 mg/mL), human intestinal microsomes (HIM) pool (10 mg/mL) as well as recombinant human CYP enzymes (with P450 oxidoreductase, OR) including CYP1A2+OR (0.5 nmol), CYP2B6+OR (0.5 nmol), CYP2C8+OR (1.0 nmol), CYP2C9*1+OR (1 nmol), CYP2C19+OR (0.5 nmol), CYP2D6*1+OR (0.5 nmol), CYP2E1+OR + cytochrome b5 (1 nmol), CYP3A4+OR + cytochrome b5 (0.5 nmol), MAO-A (5 mg/mL), MAO-B (5 mg/mL), and UGT1A10 (5 mg/mL) were purchased from Corning Life Sciences B.V (Amsterdam, Netherlands). All microsomes and recombinant enzyme solutions were aliquoted and stored at −80 °C until further use.
The total volume of the reaction mixture was 500 μL. […] Samples were either directly analyzed by liquid chromatography tandem mass spectrometry (LC-MS/MS) or briefly stored at −20°C until analysis.

Row | SMILES | EC50 [1] | EC50 [2] [nM] | signal intensity (area ratio) of metabolite ([3]; rec. CYP2D6, t = 30 min) [counts] | signal intensity (area ratio) of metabolite ([3]; rec. CYP2D6, t = 240 min) [counts]
1 | CN(C)CCc1c[nH]c2cccc(O)c12 [psilocin, 4-hydroxy-N,N-dimethyltryptamine] | 21.5 nM and < 74.5 nM |  |  | 
2 | CNCCc1c[nH]c2cccc(O)c12 [norpsilocin, N-methyl-4-hydroxytryptamine] |  | < 10 | 0.004 ± 0.001 | 0.0010 ± 0.0003

From PMC11089204 (Frontiers in Pharmacology, 2024)
